Rows were chosen to be rich in hits. Some 16% of all compounds tested hit in one or more screens of this group.
DT40 TDP1 CPT – growth inhibition of DT40 Tdp1-/-;hTDP1 cells with camptothecin (screen for TDP1 inhibitors). chicken DT40 Tdp1-/-;hTDP1 cells + 20 nM CPT, ATP luminescence, 48 h. Potency, µM (doses to about 46.2 µM), most hits filed as inhibitors. actives 12% (n = 420,000). AID 686979; also: nearly all actives have a fitted effect of over 55% in size
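Chicken DT40 Tdp1-/- cells stably complemented with human TDP1 were seeded at 400 cells/well in medium containing 20 nM camptothecin, exposed to pin-transferred compounds, and grown at 37 °C for at least 48 hr. Viability was read as ATP luminescence.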
DT40 TDP1 no CPT – qHTS for Inhibitors of human tyrosyl-DNA phosphodiesterase 1 (TDP1): qHTS in cells in absence of CPT; Potency, µM (series often up to 46.2 µM), hits mostly inhibitors; DT40 Tdp1-/- hTDP1 cells, no CPT, ATP luminescence, 48 h; AID 686978, 2013; actives 15% (n = 420,000); also: nearly all actives have a fitted effect of over 55% in size
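DT40 Tdp1-/-;hTDP1 cells, no CPT (DMSO vehicle only), 400 cells/well; compounds pin-transferred; ≥48 hr, 37 °C; CellTiter-Glo 30 min RT dark, luminescence read.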
TDP1 inh – TDP1 (human) enzyme inhibition; Q9NUW8; recombinant TDP1, AlphaScreen DNA substrate cleavage; Potency, µM (doses to about 130 µM), most hits filed as inhibitors; actives 0.28% (n = 350,000); also: nearly all actives have a fitted effect of over 40% in size
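Enzyme-compound mixtures sat 15 min at room temperature, followed by a 5 min reaction with 15 nM final substrate and 10 min with AlphaScreen beads. Recombinant human Tdp1 was used at 1 nM final.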
uPA surface inh – inhibitors of cell surface uPA generation; cell surface uPA generation assay, qHTS; actives 0.31% (n = 330,000); Potency, µM (highest dose often 38.3 µM), actives largely listed as inhibitors; active = well fitted inhibition curve with a large enough effect; inconclusive = small, poorly fitted or top-dose-only effect; inactive = no such curve, though single readings can be large or run the other way; tested in mouse RAW 264.7 cells; also: nearly all actives have a fitted effect of over 55% in size
miR-21 reporter – miR-21 reporter, rising signal; HeLa miR-21 FLuc reporter, luciferase, 48 h; Potency, µM (highest dose often 38.3 µM); 340,000 tested, under 10 active; AID 2288; active = well fitted rising curve with a large enough effect; inconclusive = small, poorly fitted or top-dose-only effect; inactive = no such curve, though single readings can be large or run the other way;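 further: miR-21 action dims this reporter so a rising signal means less miR-21 action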
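HeLa miR-21-FLuc reporter line, endogenous miR-21; 2000 cells/well in DMEM/10% FBS; compound titration up to ~40uM final, 48 h, 37 degree Celsius; luciferase detection reagent, 15 min lysis, CCD luminescence.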
Hits are given with their value; n = inactive; u = inconclusive; x = not tested or not shown. Unless noted, calls follow the shape of the dose curve; as a rule, active = well fitted curve in the direction sought with a large enough effect; inconclusive = small, poorly fitted or top-dose-only effect, or another doubt; inactive = no such curve, though single readings can be large; an effect the other way counts as inactive or inconclusive.

SMILES | DT40 TDP1 CPT | DT40 TDP1 no CPT | TDP1 inh | uPA surface inh | miR-21 reporter
CCCCCn1c(=O)[nH]c2cc(C(=O)NCc3ccccc3)ccc2c1=O | n | n | n | x | n
O=C(NCCC1=CCCCC1)c1ccc2c(=O)n3nc(Nc4ccccc4)sc3nc2c1 | 2.31µM | 3.66µM | n | x | n
CC1CCCN(C(=O)c2ccc3c(=O)n4nc(Nc5ccccc5)sc4nc3c2)C1 (stereo not drawn) | n | u | x | x | x
Cc1ccccc1Nc1nn2c(=O)c3ccc(C(=O)NCc4ccccc4)cc3nc2s1 | 16.4µM | 16.4µM | n | x | n
CCc1ccc(NC(=O)c2ccc3c(=O)n4nc(Nc5ccccc5C)sc4nc3c2)cc1 | 23.1µM | 13µM | n | x | n
CCOC(=O)C1CCCN(CC(O)COC(c2ccccc2)c2ccccc2)C1 (stereo not drawn) | n | u | n | n | n
CCCCCCCCn1ccc(=N)cc1 | 2.06µM | 1.84µM | n | n | u
CCCCCCCCCCn1ccc(=N)cc1 | 0.0058µM | 0.0184µM | n | n | u
CCCCCC(=O)c1c(O)cc(OC)c(Cl)c1O | x | x | n | x | x
COc1ccc(C(=O)COC(=O)c2ccc(OC)c(OC)c2)cc1OC | n | n | n | n | n
COc1ccc(C(=O)CSC#N)cc1OC | 3.26µM | 2.91µM | n | n | n
COc1ccc(C(C#N)CC(=O)c2ccc(OC)c(OCc3ccccc3)c2)cc1OC (stereo not drawn) | 14.6µM | 20.6µM | x | x | x
CC1CCCCN1S(=O)(=O)c1ccc(N(C(=O)c2cnccn2)C(C(=O)NC2CCCC2)c2cccs2)cc1 (stereo not drawn) | u | 20.6µM | n | n | n
CC1CCCCN1S(=O)(=O)c1ccc(N(C(=O)c2cnccn2)C(C(=O)NC2CCCCC2)c2cccs2)cc1 (stereo not drawn) | u | u | n | n | n
CCCCn1cc2c(c1-c1ccc(Cl)cc1)c(=O)n(C)c(=O)n2C | u | 14.6µM | n | x | n
CCCn1cc2c(c1-c1ccc(C)cc1)c(=O)n(C)c(=O)n2C | u | 20.6µM | n | n | n
Cc1cc(C)c(S(=O)(=O)N2CCCCC2CCNC(=O)C(=O)NCc2ccccn2)c(C)c1 (stereo not drawn) | u | u | n | n | x
O=S1(=O)CCN2C=C(Cl)C=C(Cl)C2=N1 | n | u | n | n | n
O=C(NNC(=O)c1ccc(SCC2CCCO2)c([N+](=O)[O-])c1)c1ccc(F)cc1 (stereo not drawn) | u | 20µM | n | x | n
COc1ccc(NC(=O)COc2ccc(-n3cnnn3)cc2)cc1OC | u | 23.1µM | n | n | x
Cc1ccc(NC(=O)COc2ccc(-n3cnnn3)cc2)cc1C | n | n | n | n | n
Cc1ccccc1OCc1occc1C(=O)Nc1cccc(-n2cnnn2)c1 | 23.1µM | 18.4µM | n | n | n
Cc1cc(OCCCC(=O)Nc2cccc(-n3cnnn3)c2)ccc1Cl | u | 11.6µM | n | n | n
O=[N+]([O-])CC(c1ccccc1)c1c[nH]c2ccccc12 (stereo not drawn) | 7.31µM | 5.8µM | x | u | x
COc1cc(C(C[N+](=O)[O-])c2c(C)[nH]c3ccccc23)cc(OC)c1OC (stereo not drawn) | u | u | n | n | n
SMILES | DT40 TDP1 CPT | DT40 TDP1 no CPT | TDP1 inh | uPA surface inh | miR-21 reporter
Cc1oc(C)c2c(=O)cc(-c3ccc4c(c3)OCO4)cc(OC(=O)c3ccccc3Br)c12 | 16.4µM | u | n | x | n
O=C(Oc1ccccc1Cl)c1cc(-c2ccc3c(c2)OCCO3)on1 | n | n | n | x | n
Cc1oc(C)c2c(=O)cc(-c3ccc4c(c3)OCO4)cc(OC(=O)c3ccccc3Cl)c12 | 23.1µM | u | n | x | n
CCOc1cc(-c2ccc3c(c2)OCO3)cc(=[O+]CC)c2c(C)oc(C)c12 | u | 14.1µM | n | x | x
COc1cc(NC(=O)CN2C(=O)C(c3ccc(Cl)cc3)=NC23CCCCC3)cc(OC)c1 | u | u | n | x | u
CCOC(=O)c1[nH]c(C)c(C(=O)OCC(=O)Nc2sc3c(c2C#N)CCCCC3)c1C | n | n | n | n | n
Cc1ccc(SCC(=O)c2c(C)nc3cc(C)ccn23)cc1 | u | u | n | n | n
Cc1ccn2c(C(=O)CSc3ccc(Cl)cc3)c(C)nc2c1 | 23.1µM | 20.6µM | n | n | n
Cc1ccn2c(C(=O)CSc3ccccc3)c(C)nc2c1 | 8.2µM | 8.2µM | n | n | n
COc1cccc(/C=C2\CCc3ccccc3C2=O)c1 | u | u | n | n | n
COc1ccc2c(c1)CC/C(=C\C=C\c1ccccc1)C2=O | u | 23.1µM | n | n | n
COc1ccc(OC)c(C=C2CCc3ccccc3C2=O)c1 | 20.6µM | u | x | x | x
COc1ccc2c(c1)CC/C(=C/c1cc(OC)c(OC)c(OC)c1)C2=O | u | 14.6µM | n | n | n
Cc1cc(C)cc(NC(=O)CN2CCN(C(=O)C3CCCO3)CC2)c1 (stereo not drawn) | n | n | n | n | n
O=C1Nc2ccccc2N(O)N1c1cc(-c2ccccc2Cl)no1 | n | n | n | n | n
COc1ccccc1C(=O)Nc1ccc(C(=O)/C=C/c2cccs2)cc1 | u | 18.4µM | n | n | n
O=C(/C=C/c1cccs1)c1ccc(NC(=O)c2ccccc2F)cc1 | n | 11.6µM | n | n | n
COc1cc(CN(C(=O)c2ccc(C)cc2)c2ccccn2)cc(OC)c1OC | 18.4µM | 20.6µM | n | x | n
CCOc1ccccc1C(=O)N(Cc1cc(OC)c(OC)c(OC)c1)C1CCS(=O)(=O)C1 (stereo not drawn) | n | n | n | x | n
COc1cc(/C=C/C(=O)N(Cc2ccccc2)c2ccccn2)cc(OC)c1OC | u | 29.1µM | n | n | n
COc1cc(CN(C(=O)c2cccc(C)c2)c2ccccn2)cc(OC)c1OC | 13µM | 13µM | n | x | n
CCOc1ccccc1C(=O)N(Cc1cc(OC)c(OC)c(OC)c1)c1ccccn1 | 18.4µM | u | n | x | n
COc1ccc(/C=C/C(=O)N(Cc2ccccc2)c2ccccn2)cc1OC | n | n | n | n | n
O=C(N/N=C/c1cccc(Oc2ccccc2)c1)c1ccccc1F | x | x | n | x | n
Cc1onc(-c2c(Cl)cccc2Cl)c1NC(=O)N1CCSCC1 | n | n | n | n | n
CCN1C(=O)[C@H]2[C@@H](c3ccc(C)cc3)N3C(=O)N(c4ccc(OC)cc4)C(=O)[C@@]3(Cc3ccccc3)[C@H]2C1=O | n | n | n | n | x
CCOc1ccc(C(=O)N(Cc2cc(OC)c(OC)c(OC)c2)c2ccccn2)cc1 | 14.6µM | 20.6µM | n | x | n
CCOc1ccc(C(=O)N(c2ccccn2)C2CCCCC2)cc1 | u | n | n | n | n
CC(C)(C)NC(=O)C(c1ccc(Cl)cc1)N(Cc1ccco1)C(=O)CCl (stereo not drawn) | 4.61µM | 2.91µM | x | n | n

Compound activity from PubChem.
